Results on one compound are retold here after ChEMBL document CHEMBL1667830, “Non-oxime inhibitors of B-Raf(V600E) kinase” (Bioorg Med Chem Lett, 2011).

Chains of the proteins cited; added tags and fusions are not shown. Residues count along the entry.
UniProt P15056, 2-766 V600E limits assumed: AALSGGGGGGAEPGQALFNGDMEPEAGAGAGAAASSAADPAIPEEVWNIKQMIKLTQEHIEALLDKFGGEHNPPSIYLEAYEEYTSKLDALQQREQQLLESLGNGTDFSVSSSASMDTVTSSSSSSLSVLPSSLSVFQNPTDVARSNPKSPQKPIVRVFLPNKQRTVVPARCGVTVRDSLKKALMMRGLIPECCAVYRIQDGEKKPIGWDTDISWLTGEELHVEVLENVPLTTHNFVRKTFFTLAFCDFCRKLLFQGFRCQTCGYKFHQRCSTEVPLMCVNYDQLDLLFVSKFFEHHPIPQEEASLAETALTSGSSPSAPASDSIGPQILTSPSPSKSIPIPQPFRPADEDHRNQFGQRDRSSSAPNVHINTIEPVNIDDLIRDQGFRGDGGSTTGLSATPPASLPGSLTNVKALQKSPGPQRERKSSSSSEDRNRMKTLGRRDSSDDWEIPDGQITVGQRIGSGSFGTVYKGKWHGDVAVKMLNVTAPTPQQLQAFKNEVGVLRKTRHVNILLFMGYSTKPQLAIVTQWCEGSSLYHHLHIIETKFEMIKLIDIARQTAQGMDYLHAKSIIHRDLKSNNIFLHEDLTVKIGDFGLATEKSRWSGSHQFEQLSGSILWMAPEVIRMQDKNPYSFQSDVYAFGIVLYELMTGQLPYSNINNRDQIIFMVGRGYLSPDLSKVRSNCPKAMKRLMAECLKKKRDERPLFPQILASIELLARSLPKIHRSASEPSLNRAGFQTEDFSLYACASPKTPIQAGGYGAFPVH

The target in the test is Serine/threonine-protein kinase B-raf (Homo sapiens, UniProt P15056, V600E). As to the kind of experiment: Inhibition of B-Raf V600E mutant.

With `O=C(Nc1ccncn1)c1oc2cnccc2c1Nc1ccc2c(O)cccc2c1`, the IC50 (as a rule, the concentration at which inhibition is half-maximal) is 1.4 nM.
